For assay [1], the target named is T1, μ-opioid receptor (Homo sapiens (Human), UniProt P35372). Nature of the assay: μ-opioid receptor [35S]GTPγS functional assay. On the technique in general: GTPγS is a poorly hydrolysed GTP analogue; its binding reports G protein activation.
Assay [2] has as its target T2, kappa opioid receptor (Homo sapiens (Human), UniProt P41145). Nature of the assay: κ-opioid receptor functional [35S]GTPγS binding assay.
The target of assay [3] is delta opioid receptor (Homo sapiens (Human), UniProt P41143). Nature of the assay: δ-opioid receptor functional [35S]GTPγS binding assay.
Assay [4] has as its target human opioid receptor-like receptor (ORL-1) (Homo sapiens (Human), UniProt P41146). Nature of the assay: ORL-1 receptor radioligand binding assay ([3H]-nociceptin).
Assay [5] addresses T2, kappa opioid receptor. Nature of the assay: κ-opioid receptor radioligand dose displacement assay ([3H]-U69,593). The conditions noted are these: read-out: Ki κ.
The target of assay [6] is δ-opioid receptor (Homo sapiens (Human), UniProt P41143). Nature of the assay: δ-opioid receptor radioligand dose-displacement assay ([3H]-Naltrindole). As to conditions: read-out: Ki δ.
Assay [7] addresses T1, μ-opioid receptor. Nature of the assay: μ-opioid receptor radioligand dose-displacement binding assay ([3H]-diprenorphine). The conditions noted are these: read-out: Ki μ.

SMILES strings stand for the structures.

As a reminder, the EC50 is the concentration that produces a half-maximal response. As usually defined, the Ki is the dissociation constant of the complex between target and ligand, obtained from inhibition or displacement. `C#CCOC[C@H]1C[C@@]23CC[C@]1(OC)[C@@H]1Oc4c(OC)ccc5c4[C@@]12CCN(CC1CC1)[C@@H]3C5`: the EC50 was determined as 3710 nM in assay [1] (read-out: GTPγS μ EC50), 62 nM in assay [2] (read-out: GTPγS κ EC50) and 455 nM in assay [3] (read-out: GTPγS δ EC50). Also, in assay [1] (relative to DAMGO), the “GTPγS μ Emax” value came out at 19%. The “GTPγS κ Emax” value in assay [2] (relative to U69,593) is reported as 98%. Further, the “GTPγS δ Emax” value in assay [3] (relative to met-enkephalin) is 66%. Also, in assay [4], the “Ki ORL-1” value is reported as “Inactive”. The inhibition constant (Ki) in assay [5] came out at 1.3 nM; in assay [6], 221 nM; in assay [7], 43 nM.

The record behind these values is US8530494B2, “Buprenophine analogs” (dated 2013).
